In patent US8362236B2, “Macrocyclic compound” (Chugai Seiyaku Kabushiki Kaisha, priority 2007, dated 2013):

Each compound was assayed against T1, Human HSP90 alpha (Homo sapiens, UniProt P07900) (assay: Assay for the activity of inhibiting HSP90 enzyme (ATPase, malachite green)). Details: Enzyme-inhibiting activity (IC50, μM) Human HSP90α, purified human HSP90 alpha, 1 mM ATP added, 37° C. for two hours, OD655.
T1 construct: His tag (inferred from purification on a HisPrep FF column); made in house; host or cells: E. coli BL21 codon plus (Stratagene)
Assay type: biochemical

Row | Structure (SMILES) | IC50
1 | Cc1cc(C)c2cc1C(=O)NCCCCCNC(=O)CCSc1cc-2nc(N)n1 [Compound 1, 4-amino-20,22-dimethyl-7-thia-3,5,11,17-tetraazatricyclo[17.3.1.1^2,6]tetracosa-1(22),2(24),3,5,19(23),20-hexaene-10,18-dione] | 0.8 µM
2 | Cc1cc(C)c2cc1C(=O)NCCCCNC(=O)CCSc1cc-2nc(N)n1 [Compound 6, 4-amino-19,21-dimethyl-7-thia-3,5,11,16-tetraazatricyclo[16.3.1.1^2,6]tricosa-1(21),2(23),3,5,18(22),19-hexaene-10,17-dione] | 3.4 µM
3 | Cc1cc(C)c2cc1C(=O)NCCCCOc1cccc(c1)Sc1cc-2nc(N)n1 [Compound 19, 4-amino-21,23-dimethyl-13-oxa-7-thia-3,5,18-triazatricyclo[18.3.1.1^2,6.1^8,12]hexacosa-1(23),2(25),3,5,8(26),9,11,20(24),21-nonaen-19-one] | 2.7 µM
4 | Cc1cc(C)c2cc1C(=O)NCCCCCOc1cccc(c1)Sc1cc-2nc(N)n1 [Compound 20, 4-amino-22,24-dimethyl-13-oxa-7-thia-3,5,19-triazatricyclo[19.3.1.1^2,6.1^8,12]heptacosa-1(24),2(26),3,5,8(27),9,11,21(25),22-nonaen-20-one] | 1.5 µM
5 | Cc1ccc2cc1-c1cc(nc(N)n1)Sc1cccc(c1)OCCCCCO2 [Compound 25, 4-amino-23-methyl-13,19-dioxa-7-thia-3,5-diazatricyclo[18.3.1.1^2,6.1^8,12]hexacosa-1(24),2(25),3,5,8(26),9,11,20,22-nonaene] | 1.9 µM
